Measured affinities in a library of Ab-14 heavy chain variants

Source: Li et al. 2023 (doi:10.1038/s41467-023-39022-2), MIT Lincoln Laboratory and A-Alpha Bio; data file from the FLAb repository.

Antigen: PDVDLGDISGINAS, a 14-residue peptide of the SARS-CoV-2 spike HR2 region.

Ab-14 is the parent antibody, in scFv form: VH, then the linker GGGGSGGGGSGGGGS, then VL. The light chain is unchanged in all variants.
VH: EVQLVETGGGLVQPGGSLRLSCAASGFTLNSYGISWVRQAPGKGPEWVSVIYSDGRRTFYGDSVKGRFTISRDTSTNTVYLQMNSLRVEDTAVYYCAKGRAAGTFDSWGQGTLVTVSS
VL: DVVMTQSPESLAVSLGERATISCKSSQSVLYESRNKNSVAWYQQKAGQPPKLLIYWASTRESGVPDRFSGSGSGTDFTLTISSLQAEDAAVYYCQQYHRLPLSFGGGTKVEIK

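The parent was found by panning a naive human phage display library on the peptide. These sequences belong to a second round, designed from the earlier measurements on random variants of the parent. Their group label is 14H_En_Gen (En: ensemble of fine-tuned language models; Gen: genetic algorithm). The scFvs were displayed on barcoded MATa yeast, the peptide on MATalpha yeast. Pairs that bind mate more often; barcode pairs of the diploids are counted by sequencing. Scores were corrected for input abundance and mapped to Kd with protein pairs of known affinity run in the same pool. Mating was done six times.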

Variants are written as CDR1, CDR2 and CDR3 of the heavy chain (limits as in the source). Parent: GFTLNSYGIS, VIYSDGRRTFYGDSVK, GRAAGTFDS.
Scale: log10 of Kd in nM, estimated from mating counts; low values are strong binders.
A pair that was not seen in that replicate is written "ND"; this usually means weak binding, but a binder can also be missed.
Background: pairings of all heavy chain designs with three empty control strains gave a value in 1% of cases (median 2.08, 5th percentile 0.84). Values in that range, when seen in few replicates, are hard to tell from nonspecific mating. For each scFv, signals with the empty controls are counted beside the result, with their mean in brackets.
The parent sequence was in this pool as ten entries: three were never detected, three once, and four in most replicates, with averages from 0.34 to 2.37.
The authors' rule: three or more of the six replicates give a measured affinity, fewer mean a poor binder.
Values of this round are not directly comparable with the first-round values of the same sequences.

| # | CDR-H1 | CDR-H2 | CDR-H3 | log10 Kd (nM) by replicate | signal with controls |
|---|---|---|---|---|---|
| 1 | GFDLDEYGIS | VIYADGSRTAYADSVK | GNEAGTFDL | ND / ND / ND / ND / ND / -0.09 | 0 of 18 |
| 2 | GFDLDEYGIS | VIYADGRRTAYADSVK | GNVAGTFDI | -0.46 / -0.30 / -0.75 / -0.64 / -0.77 / -0.52 | 0 of 18 |
| 3 | GFDLNEYGIS | VIYADGVRTAYAESVK | GNNAGTFDV | 0.46 / -0.80 / -0.03 / -0.89 / -0.84 / -0.23 | 0 of 18 |
| 4 | GFDLDEYGIS | VIYADGRRTAYSDSVK | GNVAGTFDL | -0.65 / -0.87 / -0.47 / -0.89 / -0.69 / -0.82 | 0 of 18 |
| 5 | GFDLNEYGIS | VIYADGMRTAYTDSVK | GENAGTFDV | 0.27 / -0.43 / ND / -0.10 / ND / 0.53 | 0 of 18 |
| 6 | GFDLEEYGIS | VIYADGQRTAYADSVK | GEVAGTFDV | 1.16 / -0.60 / -0.40 / -0.57 / 0.05 / -0.08 | 0 of 18 |
| 7 | GFDLDEYGIS | VIYADGKRTFYADSVK | GNNAGTFDV | 0.42 / -0.18 / -0.03 / -0.43 / 0.24 / 0.20 | 0 of 18 |
| 8 | GFDLDEYGIS | VIYADGSRTAYADSVK | GENAGTFDI | -0.71 / 0.05 / 1.06 / -0.87 / -0.49 / 0.22 | 1 of 18 (1.73) |
| 9 | GFDLNEYGIS | VIYADGQRTAYADDVK | GEVAGTFDT | 0.00 / -0.60 / -0.67 / -0.44 / -0.55 / -0.09 | 0 of 18 |
| 10 | GFDLDEYGIS | VIYADGVRTAYADNVK | GEVAGTFDV | 0.05 / -0.31 / -0.24 / -0.16 / -0.46 / -0.47 | 0 of 18 |
| 11 | GFDLNEYGIS | VIYADGKRTAYTDSVK | GEVAGTFDI | -0.05 / 0.00 / -0.22 / 0.09 / -0.31 / -0.18 | 0 of 18 |
| 12 | GFDLNEYGIS | VIYADGMRTAYVDSVK | GGNAGTFDV | -0.39 / -0.64 / -0.59 / -0.61 / -0.88 / -0.31 | 1 of 18 (1.62) |
| 13 | GFDLNEYGIS | VIYADGKRTYYADSVK | GENAGTFDV | 0.10 / -0.18 / 0.17 / -0.21 / -0.32 / -0.12 | 0 of 18 |
| 14 | GFDLNEYGIS | VIYADGVRTAYVDSVK | GETAGTFDV | -0.66 / -1.07 / -0.79 / -1.08 / -1.32 / -0.59 | 0 of 18 |
| 15 | GFDLDEYGIS | VIYADGMRQAYADSVK | GNVAGTFDL | -0.60 / -0.06 / -0.25 / 0.12 / -0.86 / -0.29 | 0 of 18 |
| 16 | GFDLDEYGIS | VIYADGMRTAYSDSVK | GNTAGTFDI | 0.27 / -1.39 / -0.34 / -1.38 / -0.85 / -0.41 | 0 of 18 |
| 17 | GFDLDEYGIS | VIYADGSRTAYSDSVK | GENAGTFDV | 0.04 / 0.23 / 0.95 / -0.32 / 0.80 / 1.56 | 0 of 18 |
| 18 | GFDLNEYGIS | VIYADGMRTAYTDNVK | GNVAGTFDV | ND / ND / ND / ND / ND / ND | 0 of 18 |
| 19 | GFDLNEYGIS | VIYADGSRTAYSDSVK | GENAGTFDL | -0.18 / -0.12 / -0.27 / -0.28 / -0.41 / -0.09 | 0 of 18 |
| 20 | GFDLNEYGIS | VIYADGVRTAYADSVK | GNVAGTFDT | -0.36 / -0.59 / -0.66 / -0.63 / -0.71 / -0.40 | 1 of 18 (2.50) |
| 21 | GFDLNEYGIS | VIYADGRRTFYADSVK | GEVAGTFDV | -0.30 / -0.38 / -0.42 / -0.40 / -0.37 / -0.33 | 1 of 18 (3.96) |
| 22 | GFDLNEYGIS | VIYADGMRTYYADDVK | GENAGTFDL | 0.73 / 0.21 / 0.19 / -0.11 / 0.08 / 0.10 | 0 of 18 |
| 23 | GFDLNEYGIS | VIYADGVRTAYADDVK | GEVAGTFDI | -0.09 / -0.01 / -0.14 / -0.02 / -0.44 / 0.21 | 0 of 18 |
| 24 | GFDLDEYGIS | VIYADGMRTAYTDSVK | GNVAGTFDI | -0.77 / -0.69 / -0.51 / -0.94 / -0.68 / -0.66 | 1 of 18 (0.10) |
| 25 | GFDLNEYGIS | VIYADGQRTAYADSVK | GTVAGTFDQ | -0.28 / 0.24 / -0.27 / -0.73 / -0.17 / 0.91 | 0 of 18 |
| 26 | GFDLDEYGIS | VIYADGQRTAYSDSVK | GNEAGTFDL | 0.62 / -0.20 / -0.03 / -0.11 / -0.32 / 0.12 | 0 of 18 |
| 27 | GFDLNEYGIS | VIYADGMRTAYADSVK | GNNAGTFDL | -0.48 / -0.41 / 0.04 / -0.04 / -0.43 / 0.02 | 0 of 18 |
| 28 | GFDLNEYGIS | VIYADGVRTAYSDSVK | GNEAGTFDV | -0.92 / -0.86 / -0.59 / -0.95 / -0.96 / -0.76 | 0 of 18 |
| 29 | GFDLNEYGIS | VIYADGSRKAYADSVK | GNVAGTFDT | -0.56 / -0.76 / -1.13 / -1.00 / -0.80 / -0.64 | 0 of 18 |
| 30 | GFDLDEYGIS | VIYADGMRTAYTDSVK | GQNAGTFDI | 0.08 / 0.32 / 0.34 / 0.66 / 0.32 / 0.45 | 0 of 18 |
| 31 | GFDLNEYGIS | VIYADGVRTAYTDSVK | GNVAGTFDL | 0.26 / -0.03 / 0.22 / -0.21 / -0.01 / 0.01 | 0 of 18 |
| 32 | GFDLNEYGIS | VIYADGVRTAYADNVK | GENAGTFDV | -0.07 / -0.31 / -0.29 / 0.10 / -0.26 / -0.09 | 0 of 18 |
| 33 | GFDLDEYGIS | VIYADGMRTAYSDSVK | GETAGTFDV | -0.04 / 0.41 / -0.07 / 0.14 / -0.37 / 0.11 | 0 of 18 |
| 34 | GFDLNEYGIS | VIYADGMRTAYADNVK | GEVAGTFDL | -0.39 / -0.32 / -0.17 / ND / -0.20 / 0.11 | 0 of 18 |
| 35 | GFDLNEYGIS | VIYADGMRTAYTDSVK | GQNAGTFDV | -0.38 / -0.76 / -1.01 / -0.72 / -0.25 / -0.09 | 0 of 18 |
| 36 | GFDLNEYGIS | VIYADGMRTAYADDVK | GQNAGTFDQ | -0.47 / -0.63 / -0.69 / -0.48 / -0.75 / -0.31 | 0 of 18 |
| 37 | GFDLNEYGIS | VIYADGQRTVYADSVK | GENAGTFDV | 0.10 / -0.47 / -0.12 / -0.29 / -0.47 / 0.20 | 0 of 18 |
| 38 | GFDLDEYGIS | VIYADGMRTAYADSVK | GENAGTFDT | ND / 1.17 / ND / ND / 0.53 / 1.44 | 0 of 18 |
| 39 | GFDLNEYGIS | VIYADGMRTFYADSVK | GENAGTFDI | -2.26 / -2.60 / -2.59 / -1.82 / -2.60 / -1.22 | 0 of 18 |
| 40 | GFDLNEYGIS | VIYADGMRTAYVDSVK | GQNAGTFDL | -0.20 / -0.33 / -0.42 / -0.67 / -0.38 / -0.42 | 0 of 18 |
| 41 | GFDLNEYGIS | VIYADGKRKAYADSVK | GENAGTFDV | -0.20 / -0.26 / -0.48 / -0.28 / -0.18 / -0.25 | 0 of 18 |